Measured values published in US12576087B2, “Aryloxypiperidine pyrazole compounds as indoleamine 2,3-dioxygenase inhibitors” (Merck Sharp & Dohme LLC, priority 2018, dated 2026).

Amino acid sequences for entries named in this document (tags omitted).
UniProt P14902, whole entry: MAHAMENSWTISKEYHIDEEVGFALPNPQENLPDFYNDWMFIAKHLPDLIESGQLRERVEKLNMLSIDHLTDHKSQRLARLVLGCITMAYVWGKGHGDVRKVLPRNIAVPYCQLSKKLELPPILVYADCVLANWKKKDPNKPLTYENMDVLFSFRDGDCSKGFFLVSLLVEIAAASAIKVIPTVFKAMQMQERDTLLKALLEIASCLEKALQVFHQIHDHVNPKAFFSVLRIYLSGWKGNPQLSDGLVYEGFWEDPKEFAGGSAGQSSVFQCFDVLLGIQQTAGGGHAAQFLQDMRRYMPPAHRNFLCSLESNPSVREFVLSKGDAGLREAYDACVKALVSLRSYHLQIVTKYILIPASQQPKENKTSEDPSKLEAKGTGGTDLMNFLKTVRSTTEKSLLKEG

These molecules were tested against IDO1 (Homo sapiens, UniProt P14902) (assay: IDO1 Cellular Assay in HeLa Cells Stimulated with IFNγ). Conditions: HeLa cells stimulated with IFNγ 100 ng/mL, about 48 hours.
Assay type: cell-based

First: Cc1ccccc1OC1CCN(C(=O)Cn2nc(C(=O)N3CCC(O)(CF)CC3)c3c2CCCC3)CC1 [Example 26, 2-(3-(4-(fluoromethyl)-4-hydroxypiperidine-1-carbonyl)-4,5,6,7-tetrahydro-1H-indazol-1-yl)-1-(4-(o-tolyloxy)piperidin-1-yl)ethanone]
Second: Cc1ccccc1[S+]([O-])C1CCN(C(=O)Cn2nc(C(=O)N3CC[C@H](O)[C@H](F)C3)c3c2C[C@H]2C[C@@H]32)CC1 (stereo partly drawn) [Example 179, 2-((3bR,4aR)-3-((3R,4S)-3-fluoro-4-hydroxypiperidine-1-carbonyl)-3b,4,4a,5-tetrahydro-1H-cyclopropa[3,4]cyclopenta[1,2-c]pyrazol-1-yl)-1-(4-(o-tolylsulfinyl)piperidin-1-yl)ethanone]
The EC50 of the first is 39-fold lower: 2.26 nM for the first, 87.2 nM for the second.

In the case of `C[C@@H]1CN(C(=O)c2nn(CC(=O)N3CCC(C(=O)c4ccc(F)c(F)c4)CC3)c3c2CCC3)C[C@H](C)O1` [Example 127, 1-[4-(3,4-difluorobenzene-1-carbonyl)piperidin-1-yl]-2-{3-[(2R,6S)-2,6-dimethylmorpholine-4-carbonyl]-5,6-dihydrocyclopenta[c]pyrazol-1(4H)-yl}ethan-1-one], the EC50 is reported as 485 nM.
